This note sets out measurements from patent US20160257749A1, “ANTI-TIM3 ANTIBODIES AND METHODS OF USE” (Hoffmann-La Roche, Inc., priority 2014, published 2016).

The assay has as its system TIM-3 pathway. The assay is described as follows: Mixed lymphocyte reaction (MLR), IFN-gamma secretion. Format: cell-based, human. The following applies: MLR + IL-2 20 U/ml. As to the method: T cells in the assay were tested for activation and IFN-gamma secretion in the presence or absence of an anti-TIM-3 mAbs.
Human Lymphocytes were isolated from peripheral blood of healthy donor by density gradient centrifugation using Leukosep (Greiner Bio One, 227 288). Briefly, heparinized blood were diluted with the three fold volume of PBS and 25 ml aliquots of the diluted blood were layered in 50 ml Leukosep tubes. After centrifugation at 800×g for 15 min at room temperature (w/o break) the lymphocyte containing fractions were harvested, washed in PBS and used directly in functional assay or resuspended in freezing medium (10% DMSO, 90% FCS) at 1.0E+07 cells/ml and stored in liquid nitrogen. […] The levels of IFN-gamma were measured using OptEIA ELISA kit (BD Biosciences).

Take “IL-2: rec hu IL-2 (20 EU/ml) used as positive control in MLR [reference compound]”: the “Percentage of IFNgamma release, positive control set as 100%” value stood at 100%.
